Reference: patent publication US9938587B2 (priority 2011, dated 2018)

How the values were obtained:
[1] = test system: fluorescent reporter plasmid; assay: HCR fluorescence assay of reporter plasmid treated with MNNG; conditions: plasmid treated 4 hours in 0.8 mM MNNG; 16 hours after transfection
[2] = test system: mPlum:T208C reporter plasmid; assay: O^6Methylguanine HCR with MNNG treated mPlum:T208C plasmid in TK6 cells; conditions: TK6 (MGMT-deficient), 500,000 cells analyzed, 16 hours post-transfection

N-methyl-N′-nitro-N nitrosoguanidine
inhibition of transcription (reporter expression by flow cytometry) [1]: inhibition of transcription is not detected
plum positive cells [2]: only a few hundred plum positive
